{
  "source": "patent US10188739B2",
  "about": "(Xenetic Biosciences, Inc., priority 2014, dated 2019)",
  "type_in_all_cases": "in vivo, CD-1 mice",
  "key": {"[1]": {"assay": "Pilot single intranasal dose: brain levels of AF647-labelled insulin/Sialong (acidified ethanol extraction, tandem enzyme digest, fluorescence)", "details": "for Brain Conc.: assay replicates", "procedure": "Male CD-1 mice of 8 to 9 weeks of age (18-20 g body weight) were acclimatized for 7 days before being enrolled into the study. Mice were weighed and dosed at 5 μL of dosing material per 20 g of body weight. […] Animals were anesthetized and held with the dorsal end facing down. Dosing materials were administered at a rate of 1 μL/10 seconds split equally through both nostrils. Total dosing time ranged from 1.8 to 2.3 minutes. After a nominal 10 minutes post-dose, animals were sacrificed followed by blood collection, perfusion, and tissue collection. The olfactory bulbs were included in the collection of the brain tissues. All tissues were stored at nominal -80° C. until assay. Perfusate contains: 1×PBS pH 7.4, +2.7% w/v BSA+100 U/mL heparin. […] Briefly, the procedures are outlined below: Assay Day 1 • 1. […] Homogenized brains 10% w/v with ice-cold 0.1 mM HCl diH2O:Ethanol (25:75); the […] test sample brains were homogenized • 3. […] Transferred 0.5 mL of each test sample into tubes from step 1. Assayed all test samples and calibration standards in duplicates • 4. Shake overnight at 4° C. ( 17.5 h) on orbital shaker. […] Centrifuge all samples at 3500×g for 20 min at 4° C. • 6. Collect 0.4 mL of supernatant for each sample • 7. Evaporate until complete dryness under airflow of 7 psi for 70 min at 37° C. • 8. Reconstitute all samples with reaction buffer containing 50 mM Tris pH 8 and 2 mM CaCl2 • 9. Add 1 U of proteinase K to all samples; invert mix well • 10. Incubate all samples at 37° C. for 2 h • 11. Mix samples well and adjust to pH 4 with citric acid; mix well • 12. Add 1280 U of pepsin to all samples; invert mix well • 13. Incubate all samples at 37° C. for 2 h • 14. Vortex mix all samples and sonicate at RT • 15. Centrifuge at 13200 rpm for 10 min at RT • 16. Transfer 250 μL of supernatant of each sample onto 96-well plate • 17. Take readings at Ex/Em of 635/675 nm"}, "[2]": {"assay": "Pilot single intranasal dose: plasma levels of AF647-labelled insulin/Sialong (fluorescence)", "details": "nominal 10 minutes post-dose", "procedure": "Male CD-1 mice of 8 to 9 weeks of age (18-20 g body weight) were acclimatized for 7 days before being enrolled into the study. Mice were weighed and dosed at 5 μL of dosing material per 20 g of body weight. […] Animals were anesthetized and held with the dorsal end facing down. Dosing materials were administered at a rate of ˜1 μL/10 seconds split equally through both nostrils. Total dosing time ranged from 1.8 to 2.3 minutes. After a nominal 10 minutes post-dose, animals were sacrificed followed by blood collection, perfusion, and tissue collection. The olfactory bulbs were included in the collection of the brain tissues. All tissues were stored at nominal −80° C. until assay. Perfusate contains: 1×PBS pH 7.4, +2.7% w/v BSA+100 U/mL heparin. […] Read plate at Ex/Em 635/675."}, "[3]": {"assay": "Pilot single intranasal dose: lung/liver/kidney/spleen levels of AF647-labelled insulin/Sialong (tissue lysate fluorescence)", "details": "nominal 10 minutes post-dose", "procedure": "Male CD-1 mice of 8 to 9 weeks of age (18-20 g body weight) were acclimatized for 7 days before being enrolled into the study. Mice were weighed and dosed at 5 μL of dosing material per 20 g of body weight. […] Animals were anesthetized and held with the dorsal end facing down. Dosing materials were administered at a rate of ˜1 μL/10 seconds split equally through both nostrils. Total dosing time ranged from 1.8 to 2.3 minutes. After a nominal 10 minutes post-dose, animals were sacrificed followed by blood collection, perfusion, and tissue collection. The olfactory bulbs were included in the collection of the brain tissues. All tissues were stored at nominal −80° C. until assay. Perfusate contains: 1×PBS pH 7.4, +2.7% w/v BSA+100 U/mL heparin. Lung/Liver/Kidney/Spleen. […] To evaluate recovery and matrix differences between the calibration matrices and study test samples, a spiking recovery experiment was performed (Table 2). […] The RFU correction factor was determined by dividing the response of each analyte spiked into BALB-c lysates (preparation procedures described below) by the response of each analyte spiked into CD-1 homogenate and then extracted. For kidney and liver matrices, there was enough material available to evaluate spiking recovery at two different levels. […] However, due to lack of tissue material, lung and spleen spiking recovery tests could only be performed at one concentration level. Consequently, response corrections were made based on singular values. Briefly, the sample preparation procedures are outlined below: […] For liver, due to the large size of this organ, a 1:1 tissue:lysis buffer ratio was used during homogenization. • 1. Add remaining 9 parts of lysis buffer to liver homogenates • 2. Lyse homogenates with 5 mm stainless steel beads with TissueLyzer by agitation at 25 Hz for 30 min • 3. Further incubate lysates at RT for 30 min on orbital shaker • 4. Pool lysates • 5. […] Centrifuge samples at 13200 rpm for 10 min to pellet debris • 7. Transfer 250 μL of supernatant onto 96-well plate • 8. Read plate at Ex/Em 635/675 4. Assay Performances"}, "[4]": {"assay": "Pharmacokinetics and biodistribution following intranasal delivery (Study 2): brain concentrations over time", "details": "for Ind. Insulin Conc.: LLOQ 45 ng/g; for Insulin Conc in brain, Individual: insulin^AF647 0.90 mg/kg (0.155 μmol insulin/kg) single intranasal dose", "procedure": "Animals were weighed and dosed at 5 μL of dosing material per 20 g of body weight. Animals were anesthetized and held with the dorsal end facing down. Dosing materials were administered at a rate of ˜1 μL/10 seconds split equally through both nostrils. […] At nominal time points post-dose, animals were sacrificed followed by blood collection, perfusion (perfusate contained 2.7% w/v BSA and 100 U/mL heparin in 1×PBS pH7.4), and tissue collection. The olfactory bulbs were included in the collection of the brain tissues. All tissues were stored at nominal −80° C. until assay. Whole tissue samples were collected. Brain was divided into two sections longitudinally. Half was assayed as described below and half was snap-frozen and stored at −80 C for storage. Sample matrices and total number of samples collected in the study for each dose group were stored at nominal −80° C. […] Brain tissue samples were assayed using acidified ethanol extraction overnight followed by 4 hours of tandem enzyme digest, as described above. The test articles described above were used as calibration standards."}, "[5]": {"details": "insulin^AF647 high dose 3.0 mg/kg intranasal, 3 mg/kg"}, "[6]": {"details": "insulin^AF647 low dose 0.6 mg/kg intranasal"}, "[7]": {"details": "insulin^AF647 high dose 3.0 mg/kg intranasal"}, "[8]": {"details": "brain, individual animals, 5 m post intranasal dose"}, "[9]": {"details": "insulin^AF647 0.90 mg/kg single intranasal dose, time point 0 m"}, "[10]": {"details": "insulin^AF647 0.90 mg/kg single intranasal dose, time point 5 m"}, "[11]": {"details": "insulin^AF647 0.90 mg/kg single intranasal dose, time point 10 m"}, "[12]": {"details": "insulin^AF647 0.90 mg/kg single intranasal dose, time point 30 m"}, "[13]": {"details": "insulin^AF647 0.90 mg/kg single intranasal dose, time point 1 h"}, "[14]": {"details": "insulin^AF647 0.90 mg/kg single intranasal dose, time point 2 h"}, "[15]": {"details": "insulin^AF647 0.90 mg/kg single intranasal dose, time point 4 h"}, "[16]": {"details": "insulin^AF647 0.90 mg/kg single intranasal dose, time point 8 h"}},
  "note": "Several values for one entry are separate records, joined by “and”; a condition that tells them apart may be missing. Equal values may be shown once.",
  "data": [
    {"substance": "Insulin", "values": [
      {"measurement": "Brain Conc.", "setting": "[1]; insulin^AF647 high dose 3.0 mg/kg intranasal, nominal 10 minutes post-dose, 3 mg/kg", "value": "80.1 ng/g and 82.0 ng/g and 7.52 ng/g and 7.15 ng/g"},
      {"measurement": "Brain % Dose", "setting": "[1]; insulin^AF647 low dose 0.6 mg/kg intranasal, nominal 10 minutes post-dose", "value": 0.02, "unit": "% Dose"},
      {"measurement": "Brain Conc.", "setting": "[1]; insulin^AF647 low dose 0.6 mg/kg intranasal, nominal 10 minutes post-dose, 0.6 mg/kg", "value": "9.87 ng/g and 4.99 ng/g and 22.5 ng/g and 11.3 ng/g"},
      {"measurement": "concentration levels detected in the mouse brain (in words)", "setting": "[1]; pilot study, 10 minutes post-dose, intranasal, Sialong at both dose levels, insulin even at 3.0 mg/kg", "value": "Low concentration levels"},
      {"measurement": "relationship between brain and plasma levels as the dose increased", "setting": "[1]; pilot study, 10 minutes post-dose, Sialong 2.1 to 10.5 mg/kg, insulin 0.6 to 3.0 mg/kg intranasal", "value": "linear relationship"},
      {"measurement": "Plasma % Dose", "setting": "[2]; [5]", "value": "0.04 % Dose and 0.03 % Dose"},
      {"measurement": "Plasma Conc.", "setting": "[2]; [5]", "value": "52.5 ng/mL and 39.6 ng/mL"},
      {"measurement": "Plasma % Dose", "setting": "[2]; [6]", "value": 0.04, "unit": "% Dose"},
      {"measurement": "Plasma Conc.", "setting": "[2]; insulin^AF647 low dose 0.6 mg/kg intranasal, 0.6 mg/kg", "value": "14.4 ng/mL and 11.8 ng/mL"},
      {"measurement": "Kidney Conc.", "setting": "[3]; [7]", "value": "<LLOQ"},
      {"measurement": "Liver Conc.", "setting": "[3]; [7]", "value": "<LLOQ"},
      {"measurement": "Lung Conc.", "setting": "[3]; [7]", "value": "<LLOQ"},
      {"measurement": "Spleen Conc.", "setting": "[3]; [7]", "value": "<LLOQ"},
      {"measurement": "Kidney Conc.", "setting": "[3]; [6]", "value": "<LLOQ"},
      {"measurement": "Liver Conc.", "setting": "[3]; [6]", "value": "<LLOQ"},
      {"measurement": "Lung Conc.", "setting": "[3]; [6]", "value": "<LLOQ"},
      {"measurement": "Spleen Conc.", "setting": "[3]; [6]", "value": "<LLOQ"},
      {"measurement": "% Dose (Insulin Group)", "setting": "[4]; [8]", "value": 0.23, "unit": "%"},
      {"measurement": "Ind. Insulin Conc.", "setting": "[4]; [8]", "value": "<LLOQ (4×) and 165 ng/g"},
      {"measurement": "Ind. Insulin Conc.", "setting": "[4]; brain, individual animals, 10 m post intranasal dose", "value": "<LLOQ"},
      {"measurement": "Ind. Insulin Conc.", "setting": "[4]; brain, individual animals, 30 m post intranasal dose", "value": "<LLOQ"},
      {"measurement": "Ind. Insulin Conc.", "setting": "[4]; brain, individual animals, 1 h post intranasal dose", "value": "<LLOQ"},
      {"measurement": "Ind. Insulin Conc.", "setting": "[4]; brain, individual animals, 2 h post intranasal dose", "value": "<LLOQ"},
      {"measurement": "Ind. Insulin Conc.", "setting": "[4]; brain, individual animals, 4 h post intranasal dose", "value": "<LLOQ"},
      {"measurement": "Ind. Insulin Conc.", "setting": "[4]; brain, individual animals, 8 h post intranasal dose", "value": "<LLOQ"},
      {"measurement": "Insulin Conc in brain, Individual", "setting": "[4]; time point 0 m", "value": "<LLOQ"},
      {"measurement": "Insulin Conc in brain, Individual", "setting": "[4]; time point 5 m", "value": "<LLOQ (4×) and 165 ng/g"},
      {"measurement": "Insulin Conc in brain, Individual", "setting": "[4]; time point 10 m", "value": "<LLOQ"},
      {"measurement": "Insulin Conc in brain, Individual", "setting": "[4]; time point 30 m", "value": "<LLOQ"},
      {"measurement": "Insulin Conc in brain, Individual", "setting": "[4]; time point 1 h", "value": "<LLOQ"},
      {"measurement": "Insulin Conc in brain, Individual", "setting": "[4]; time point 2 h", "value": "<LLOQ"},
      {"measurement": "Insulin Conc in brain, Individual", "setting": "[4]; time point 4 h", "value": "<LLOQ"},
      {"measurement": "Insulin Conc in brain, Individual", "setting": "[4]; time point 8 h", "value": "<LLOQ"},
      {"measurement": "insulin levels in brain, all time points evaluated", "setting": "[4]; insulin^AF647 0.90 mg/kg intranasal, except for one animal at the 5-minute time point", "value": "below LLOQ"},
      {"measurement": "distribution to the brain (in words)", "setting": "[4]; insulin^AF647 0.90 mg/kg single intranasal dose, any of the time points evaluated (0 m to 8 h)", "value": "not appreciably distributed to the brain"},
      {"measurement": "Insulin Conc in brain, Mean", "setting": "[4]; [9]", "value": "<LLOQ"},
      {"measurement": "Insulin Conc in brain, Median", "setting": "[4]; [9]", "value": "<LLOQ"},
      {"measurement": "Insulin Conc in brain, Mean", "setting": "[4]; [10]", "value": "<LLOQ"},
      {"measurement": "Insulin Conc in brain, Median", "setting": "[4]; [10]", "value": "<LLOQ"},
      {"measurement": "Insulin Conc in brain, Mean", "setting": "[4]; [11]", "value": "<LLOQ"},
      {"measurement": "Insulin Conc in brain, Median", "setting": "[4]; [11]", "value": "<LLOQ"},
      {"measurement": "Insulin Conc in brain, Mean", "setting": "[4]; [12]", "value": "<LLOQ"},
      {"measurement": "Insulin Conc in brain, Median", "setting": "[4]; [12]", "value": "<LLOQ"},
      {"measurement": "Insulin Conc in brain, Mean", "setting": "[4]; [13]", "value": "<LLOQ"},
      {"measurement": "Insulin Conc in brain, Median", "setting": "[4]; [13]", "value": "<LLOQ"},
      {"measurement": "Insulin Conc in brain, Mean", "setting": "[4]; [14]", "value": "<LLOQ"},
      {"measurement": "Insulin Conc in brain, Median", "setting": "[4]; [14]", "value": "<LLOQ"},
      {"measurement": "Insulin Conc in brain, Mean", "setting": "[4]; [15]", "value": "<LLOQ"},
      {"measurement": "Insulin Conc in brain, Median", "setting": "[4]; [15]", "value": "<LLOQ"},
      {"measurement": "Insulin Conc in brain, Mean", "setting": "[4]; [16]", "value": "<LLOQ"},
      {"measurement": "Insulin Conc in brain, Median", "setting": "[4]; [16]", "value": "<LLOQ"}
    ]}
  ]
}
